Usually pKi stands for the negative decadic logarithm of the Ki, by convention in mol/L. A lower pKi goes with a large Ki.

Sequences of proteins named here, by UniProt entry; tags and fusion partners are left off.
UniProt P20272, whole entry: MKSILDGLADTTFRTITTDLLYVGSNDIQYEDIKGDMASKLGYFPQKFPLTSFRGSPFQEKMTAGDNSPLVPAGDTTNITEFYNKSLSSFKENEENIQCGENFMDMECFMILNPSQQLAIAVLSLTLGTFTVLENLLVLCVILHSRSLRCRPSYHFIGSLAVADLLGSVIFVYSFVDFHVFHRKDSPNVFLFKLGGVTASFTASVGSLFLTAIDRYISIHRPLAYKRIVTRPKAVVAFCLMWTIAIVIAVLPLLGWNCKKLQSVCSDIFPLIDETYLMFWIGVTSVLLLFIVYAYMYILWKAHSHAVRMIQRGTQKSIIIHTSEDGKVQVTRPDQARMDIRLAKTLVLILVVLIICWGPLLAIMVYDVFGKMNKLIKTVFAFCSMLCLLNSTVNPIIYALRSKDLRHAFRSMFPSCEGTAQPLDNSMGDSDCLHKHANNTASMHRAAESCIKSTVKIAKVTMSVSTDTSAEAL

pKi: −log10 of the molar value.

One compound from ChEMBL document CHEMBL1135957, “Novel 1',1'-chain substituted Delta(8)-tetrahydrocannabinols” (Bioorg Med Chem Lett, 2002) can be followed below.

In the experiment the target is Cannabinoid receptor 1 (Rattus norvegicus, UniProt P20272). The experiment can be described thus: Binding affinity for Cannabinoid receptor 1 by the ability to displace radiolabeled CP-55940 from purified rat forebrain synaptosomes. Format: subcellular, Brain.

Turning to `C=C(C)[C@@H]1CCC(C)=C[C@H]1c1c(O)cc(CCCCC)cc1O` [CANNABIDIOL], the negative-log Ki (pKi) is 5.90.
